Laboratory results reported in US8148386B2, “Agent for the prevention and treatment of prostatic hyperplasia comprising pyrazolopyrimidinone compound” (priority 2006, dated 2012).

By UniProt entry, the sequences of proteins in these tests, tags left out. Where a name states a change or a piece, a line headed by the entry shows the natural chain unless it says otherwise.
UniProt Q9HCR9: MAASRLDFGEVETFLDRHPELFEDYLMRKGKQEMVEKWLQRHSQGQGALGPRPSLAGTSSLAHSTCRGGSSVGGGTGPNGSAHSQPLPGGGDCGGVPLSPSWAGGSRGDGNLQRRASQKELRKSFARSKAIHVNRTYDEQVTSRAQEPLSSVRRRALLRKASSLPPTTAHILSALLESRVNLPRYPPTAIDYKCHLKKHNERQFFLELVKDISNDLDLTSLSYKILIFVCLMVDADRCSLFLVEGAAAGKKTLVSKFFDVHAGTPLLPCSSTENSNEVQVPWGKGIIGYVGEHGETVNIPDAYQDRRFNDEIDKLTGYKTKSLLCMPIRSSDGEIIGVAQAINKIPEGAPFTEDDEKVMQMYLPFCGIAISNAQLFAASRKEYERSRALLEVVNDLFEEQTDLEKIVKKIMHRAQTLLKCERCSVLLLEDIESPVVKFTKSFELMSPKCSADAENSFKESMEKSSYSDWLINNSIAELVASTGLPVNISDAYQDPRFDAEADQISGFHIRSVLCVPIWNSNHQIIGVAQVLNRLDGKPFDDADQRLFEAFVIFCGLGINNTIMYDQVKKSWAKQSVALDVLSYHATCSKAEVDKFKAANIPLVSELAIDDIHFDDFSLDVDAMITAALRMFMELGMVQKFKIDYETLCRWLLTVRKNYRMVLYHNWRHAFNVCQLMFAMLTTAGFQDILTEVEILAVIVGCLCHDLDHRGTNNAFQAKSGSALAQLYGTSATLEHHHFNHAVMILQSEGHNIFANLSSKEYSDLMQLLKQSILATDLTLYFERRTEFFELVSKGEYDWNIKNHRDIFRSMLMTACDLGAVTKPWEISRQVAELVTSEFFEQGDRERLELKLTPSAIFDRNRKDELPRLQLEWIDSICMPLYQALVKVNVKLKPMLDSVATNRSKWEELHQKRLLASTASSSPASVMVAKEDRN

Target: PDE-11 (Homo sapiens, UniProt Q9HCR9)

## CN1CC(=O)N2[C@H](c3ccc4c(c3)OCO4)c3[nH]c4ccccc4c3C[C@@H]2C1=O [Cialis]
  inhibition of the activity of PDE-11: inhibits the activity of PDE-11
